## scFv variants of Ab-95 (light chain) against a SARS-CoV-2 spike peptide

Data: MIT Lincoln Laboratory AlphaSeq set, Engelhart et al. 2022, doi:10.1038/s41597-022-01779-4, as distributed in FLAb.

Target: peptide PDVDLGDISGINAS, taken from heptad repeat 2 (HR2) of SARS-CoV-2 spike.

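Phage display of a naive human antibody library on the peptide gave the parent. AAYL52 was designed without a model: most single CDR substitutions and a random sample of double and triple ones. In AlphaSeq, yeast of one mating type display the scFv and yeast of the other type display the target. The frequency of each diploid, read from paired DNA barcodes, reflects how well the two displayed proteins bind. Each replicate has its own calibration line, from reference interactions of the BCL2 family. Each pool was mated in three replicate cultures.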

Ab-95 is the parent antibody, in scFv form: VH, then a (GGGGS)3 linker, then VL. The heavy chain is unchanged in all variants.
VH: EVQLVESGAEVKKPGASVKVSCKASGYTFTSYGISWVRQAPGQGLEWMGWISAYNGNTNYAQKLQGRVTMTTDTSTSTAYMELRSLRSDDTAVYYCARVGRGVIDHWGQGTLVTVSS
VL: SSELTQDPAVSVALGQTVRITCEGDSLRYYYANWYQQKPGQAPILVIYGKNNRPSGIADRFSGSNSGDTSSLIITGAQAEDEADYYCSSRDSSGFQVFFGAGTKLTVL

Positions count from residue 1 of the parent VL; R28Q puts Q in place of R. Scale: log10 of Kd in nM, estimated from mating counts; low values are strong binders. An entry "nd" has no value in the source: the pair was not observed among the diploids in that replicate. This suggests poor binding but is not conclusive.

For R28Q+S88Y+R90M, the assay gave 3.95, 2.97, 2.89 (controls 4 of 9).
For N51E, the assay gave 3.30, 3.33, 1.79 (controls 3 of 9).
For D25C+S55F+F95G, the assay gave 4.29, nd, nd (controls 2 of 9).
For E23S+Y31Q+A32K, the assay gave 3.09, 3.42, 4.13 (controls 4 of 9).
For K50E+S55D, the assay gave 1.98, 1.87, 1.65 (controls 0 of 9).
For S26G+V97F+F98R, the assay gave 2.93, 2.30, 2.44 (controls 4 of 9).
For L27V+R53S+S55W, the assay gave 5.48, 3.68, 3.56 (controls 1 of 9).
For D25V+S92M+F98A, the assay gave 2.73, 3.42, 4.06 (controls 2 of 9).
For Y30D+R53I+S55H, the assay gave 2.53, 1.88, 2.32 (controls 0 of 9).
For L27I+Y30L+N33W, the assay gave 3.47, nd, nd (controls 2 of 9).
For E23Y+Y31E+S88L, the assay gave 2.20, 2.27, 1.64 (controls 3 of 9).
For Y30Q+G49P+N52P, the assay gave nd, nd, nd (controls 3 of 9).
For R90C+S92P+F95G, the assay gave 3.07, 2.23, 2.21 (controls 1 of 9).
For Y29K+Y30M+Q96Y, the assay gave 1.96, 1.79, 1.65 (controls 1 of 9).
For S26L+R53T+P54K, the assay gave 4.59, 3.59, 4.21 (controls 3 of 9).
For S26H+R28V+S93L, the assay gave 4.61, nd, nd (controls 2 of 9).
For G24K+R90A+V97Y, the assay gave nd, nd, nd (controls 1 of 9).
For R28Y+Y29N+G94W, the assay gave nd, nd, nd (controls 4 of 9).
For G49C+R53F+S93N, the assay gave nd, nd, nd (controls 4 of 9).
For V97D+F98R, the assay gave 2.04, 1.94, 1.53 (controls 1 of 9).
For D25G+N33Q+F95V, the assay gave nd, nd, nd (controls 2 of 9).
For S26C+R90H+D91Q, the assay gave 4.61, 6.07, 3.86 (controls 5 of 9).
For L27T+R90H+Q96V, the assay gave nd, 3.60, nd (controls 4 of 9).
For Y29I, the assay gave 3.63, 2.27, 3.81 (controls 0 of 9).
For A32Q+S92G+Q96N, the assay gave nd, nd, nd (controls 2 of 9).
For E23H+S26M+S55D, the assay gave 2.33, 2.88, 1.93 (controls 5 of 9).
For Y30C+Q96P+F98P, the assay gave 3.55, 2.96, 3.51 (controls 6 of 9).
For N33D+G94N+F95D, the assay gave 4.42, nd, 4.19 (controls 2 of 9).
For D25K+S89L+S92C, the assay gave 3.50, 3.52, nd (controls 3 of 9).
For N51T+R53E+S92Y, the assay gave 2.33, 3.08, 2.04 (controls 2 of 9).
For A32S+G94T, the assay gave nd, nd, nd (controls 4 of 9).
For N33Y+S55C+D91S, the assay gave nd, nd, 4.10 (controls 2 of 9).
For N33Q+V97R, the assay gave 3.60, nd, 3.13 (controls 1 of 9).
For Y29W+A32K+K50S, the assay gave nd, 3.35, 4.15 (controls 1 of 9).
For S92I+S93G+Q96S, the assay gave 3.58, 2.66, 3.66 (controls 1 of 9).
For E23H+Y30H+N52W, the assay gave 1.95, 1.82, 1.19 (controls 4 of 9).
For G24H+S88K+V97Q, the assay gave 3.29, 1.83, 2.83 (controls 1 of 9).
For R53P+G94H+F98K, the assay gave nd, 4.90, nd (controls 1 of 9).
For R28A+Y30Q, the assay gave 1.02, 0.97, 0.42 (controls 6 of 9).
For R53S+S55Y+F95R, the assay gave 3.22, 3.18, nd (controls 2 of 9).
For D25V+Y29L+S88E, the assay gave 3.75, 3.58, nd (controls 2 of 9).
For E23K+P54L+V97Y, the assay gave 2.53, 2.77, 2.98 (controls 2 of 9).
For R53V+S88L+R90Q, the assay gave 3.19, nd, 4.54 (controls 2 of 9).
For K50Q+P54K, the assay gave 2.44, 2.44, 2.13 (controls 4 of 9).

Extract of 4 entries:

Variant A32S+G94T showed nd, nd, nd (controls 4 of 9).
Variant S26C+R90H+D91Q showed 4.61, 6.07, 3.86 (controls 5 of 9).
Variant R53P+G94H+F98K showed nd, 4.90, nd (controls 1 of 9).
Variant N51T+R53E+S92Y showed 2.33, 3.08, 2.04 (controls 2 of 9).

As a blank, each scFv also met three strains without target: over library AAYL52, 28% of these pairings were detected, typically at 3.91 and seldom below 2.90. Also given: how often the same scFv was detected with the empty control strains.